In ChEMBL document CHEMBL1152530, “Fluorinated pyridinium oximes as potential reactivators for acetylcholinesterases inhibited by paraoxon organophosphorus agent” (2009):

What was measured:
Parameters in all cases: scale not given: the % may be the effect or the level left
[1] = target: Acetylcholinesterase (Musca domestica) (UniProt Q7YWJ9); test: Reactivation of paraoxon-inhibited house fly AChE activity at 5 mM after 1 hr by Ellman's method
[2] = target: T1, Acetylcholinesterase (Bos taurus) (UniProt P23795); test: Reactivation of paraoxon-inhibited AChE activity in bovine red blood cell at 5 mM after 1 hr by Ellman's method
T1 sequence (whole entry): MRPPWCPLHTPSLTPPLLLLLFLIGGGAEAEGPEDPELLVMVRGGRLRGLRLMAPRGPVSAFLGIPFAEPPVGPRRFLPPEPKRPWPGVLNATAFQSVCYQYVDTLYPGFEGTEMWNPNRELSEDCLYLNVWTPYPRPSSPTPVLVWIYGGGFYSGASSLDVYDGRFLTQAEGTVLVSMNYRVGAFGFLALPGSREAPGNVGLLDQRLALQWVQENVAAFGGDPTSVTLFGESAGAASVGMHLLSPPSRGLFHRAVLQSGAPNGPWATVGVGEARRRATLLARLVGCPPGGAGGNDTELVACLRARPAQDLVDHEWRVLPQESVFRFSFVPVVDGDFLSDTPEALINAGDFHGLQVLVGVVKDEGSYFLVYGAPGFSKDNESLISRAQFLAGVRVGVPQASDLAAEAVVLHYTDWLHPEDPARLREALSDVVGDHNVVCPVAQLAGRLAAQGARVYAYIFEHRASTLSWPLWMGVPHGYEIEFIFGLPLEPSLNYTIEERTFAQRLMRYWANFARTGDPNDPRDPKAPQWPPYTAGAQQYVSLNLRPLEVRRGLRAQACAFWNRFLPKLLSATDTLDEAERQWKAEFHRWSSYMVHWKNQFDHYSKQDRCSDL

[3] = target: Acetylcholinesterase (Musca domestica) (UniProt Q7YWJ9); test: Reactivation of diisopropylfluorophosphate-inhibited house fly AChE activity at 5 mM after 30 mins by Ellman's method
[4] = target: T1, Acetylcholinesterase (Bos taurus); test: Reactivation of diisopropylfluorophosphate-inhibited AChE activity in bovine red blood cell at 5 mM after 30 mins by Ellman's method
[5] = target: T1, Acetylcholinesterase (Bos taurus); test: Reactivation of organophosphate-inhibited AChE activity in bovine red blood cell at 5 mM by Ellman's method

Row | SMILES | Activity [1] | Activity [2] | Activity [3] | Activity [4] | Activity [5]
1 | O/N=C/c1cc[n+](C/C=C/C[n+]2ccc(/C=N/O)c(F)c2)cc1 | 42.3% | 54.6% | 42.3% | 54.6% | –
2 | NC(=O)c1cc[n+](COC[n+]2ccccc2/C=N/O)cc1 | – | – | – | – | 48.2%
3 | O/N=C/c1cc[n+](C/C=C/C[n+]2ccc(/C=N/O)c(F)c2)cc1F | 23% | 49.9% | 23% | 49.9% | –
4 | NC(=O)c1cc[n+](C/C=C/C[n+]2ccc(/C=N/O)c(F)c2)cc1 | 38.6% | 63.3% | 38.6% | 63.3% | –
5 | O/N=C\c1cc[n+](C/C=C/C[n+]2ccc(/C=N/O)cc2)cc1 | 24.7% | 50.6% | 24.7% | 50.6% | –
